Experimental data published in patent US10647700B2, “EZH2 inhibitor and use thereof” (TARAPEUTICS SCIENCE INC., priority 2017, dated 2020).

Protein sequences, listed by entry. Tags and fused reporters are not part of them.
UniProt Q15910, whole entry Y641F: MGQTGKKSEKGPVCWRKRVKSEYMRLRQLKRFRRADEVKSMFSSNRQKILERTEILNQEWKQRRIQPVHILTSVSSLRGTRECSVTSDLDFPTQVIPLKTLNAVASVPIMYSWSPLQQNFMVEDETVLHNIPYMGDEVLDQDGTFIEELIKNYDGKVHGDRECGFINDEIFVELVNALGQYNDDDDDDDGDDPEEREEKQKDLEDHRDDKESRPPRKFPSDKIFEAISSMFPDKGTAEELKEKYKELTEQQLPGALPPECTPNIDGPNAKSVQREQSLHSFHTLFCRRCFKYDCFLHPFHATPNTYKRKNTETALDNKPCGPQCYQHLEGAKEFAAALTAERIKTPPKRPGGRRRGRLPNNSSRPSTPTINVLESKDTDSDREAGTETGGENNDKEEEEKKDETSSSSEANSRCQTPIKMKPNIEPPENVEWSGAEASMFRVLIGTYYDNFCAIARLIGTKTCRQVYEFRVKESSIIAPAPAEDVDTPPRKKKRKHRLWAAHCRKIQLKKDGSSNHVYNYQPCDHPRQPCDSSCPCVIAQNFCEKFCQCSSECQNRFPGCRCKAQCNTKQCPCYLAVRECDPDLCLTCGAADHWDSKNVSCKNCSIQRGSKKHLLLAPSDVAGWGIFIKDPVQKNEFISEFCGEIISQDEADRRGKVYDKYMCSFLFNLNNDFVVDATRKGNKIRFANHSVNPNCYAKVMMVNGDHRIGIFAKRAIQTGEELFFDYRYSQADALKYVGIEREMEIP

Tests used:
[1] = target: PRC2 protein complex comprising EZH2(Y641F) (Homo sapiens (Human), UniProt Q15910, Y641F); experiment: EZH2(Y641F) TR-FRET enzymatic activity assay
[2] = tested on: H3K27m3 methylation in Pfeiffer cells; experiment: Western Blot of H3K27m3 methylation in Pfeiffer cells; assay type: cell-based; conditions: Homo sapiens, 72 h, read-out: IC50 (μM) pfeiffer
Method: Meanwhile, the inventors further conducted Western Blot with Pfeiffer cells (purchased from ATCC, USA) for verification. […] Effect of compounds on H3K27m3 methylation in cells was assessed.

IC50 [1] [nM]	Structure (SMILES)	activity compared with control compounds in the assay using a TR-FRET kit [1]	IC50 [2] [µM]
–	CCN(C(=O)C1CC1)c1cc(-c2ccc(N3CCN(CC4CC4)CC3)nc2C)cc(C(=O)NCc2c(C)cc(C)[nH]c2=O)c1C [Compound 69, 5-(6-(4-(cyclopropylmethyl)piperazin-1-yl)-2-methylpyridin-3-yl)-N-((4,6-dimethyl-2-oxo-1,2-dihydropyridin-3-yl)methyl)-3-(N-ethylcyclopropanecarboxamido)-2-methylbenzamide]	superior activity than control compounds GSK126 and EPZ6438	0.064
16	CCN(C(=O)C1CC1)c1cc(-c2cnc(N3CCN(CC4CC4)CC3)cc2C)cc(C(=O)NCc2c(C)cc(C)[nH]c2=O)c1C [Compound 71, 5-(6-(4-(cyclopropylmethyl)piperazin-1-yl)-4-methylpyridin-3-yl)-N-((4,6-dimethyl-2-oxo-1,2-dihydropyridin-3-yl)methyl)-3-(N-ethylcyclopropanecarboxamido)-2-methylbenzamide]	–	–
